Biological target: ROS1 (SLC34A2:ROS1 fusion) (Homo sapiens, UniProt O95436+P08922)
Experiment: ROS1 phosphorylation in HCC78 cells, immunoblot
Conditions: 100 nM

Protein sequences, listed by entry. Tags and fused reporters are not part of them. Lines headed by an entry give the natural chain unless they say otherwise; changes in a name come on top. Residues count along the entry.
UniProt O95436: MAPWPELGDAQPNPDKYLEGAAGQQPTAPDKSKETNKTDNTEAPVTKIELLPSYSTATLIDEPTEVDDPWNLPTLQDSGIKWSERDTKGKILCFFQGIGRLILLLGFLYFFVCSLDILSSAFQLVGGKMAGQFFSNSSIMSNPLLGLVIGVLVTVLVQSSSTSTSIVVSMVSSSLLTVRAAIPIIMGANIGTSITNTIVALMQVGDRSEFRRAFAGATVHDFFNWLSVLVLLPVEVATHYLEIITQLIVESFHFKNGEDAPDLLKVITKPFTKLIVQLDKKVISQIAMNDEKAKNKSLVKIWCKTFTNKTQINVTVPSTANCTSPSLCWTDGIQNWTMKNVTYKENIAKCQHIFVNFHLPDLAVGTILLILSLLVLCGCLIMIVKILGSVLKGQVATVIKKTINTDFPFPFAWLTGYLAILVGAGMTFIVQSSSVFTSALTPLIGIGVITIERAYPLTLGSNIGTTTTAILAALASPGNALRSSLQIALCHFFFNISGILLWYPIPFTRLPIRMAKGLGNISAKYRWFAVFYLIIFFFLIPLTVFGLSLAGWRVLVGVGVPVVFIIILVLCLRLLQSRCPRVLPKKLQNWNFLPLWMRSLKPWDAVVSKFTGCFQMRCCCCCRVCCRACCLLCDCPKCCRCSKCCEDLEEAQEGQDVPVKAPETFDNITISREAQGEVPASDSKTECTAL
UniProt P08922, 1883-2347 limits assumed: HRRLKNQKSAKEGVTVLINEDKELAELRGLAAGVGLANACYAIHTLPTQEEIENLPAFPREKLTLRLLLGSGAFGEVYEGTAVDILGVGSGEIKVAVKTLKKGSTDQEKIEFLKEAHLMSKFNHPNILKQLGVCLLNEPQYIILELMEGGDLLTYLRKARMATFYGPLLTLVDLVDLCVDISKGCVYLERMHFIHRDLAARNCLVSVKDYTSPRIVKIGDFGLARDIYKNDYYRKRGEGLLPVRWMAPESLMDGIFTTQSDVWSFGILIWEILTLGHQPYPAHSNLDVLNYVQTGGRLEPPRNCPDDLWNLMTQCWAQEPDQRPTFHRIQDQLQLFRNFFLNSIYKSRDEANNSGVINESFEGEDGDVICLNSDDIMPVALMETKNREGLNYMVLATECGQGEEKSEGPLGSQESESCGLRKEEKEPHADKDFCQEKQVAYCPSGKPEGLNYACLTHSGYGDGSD

With `C[C@@H](Oc1cc(-c2cnn(C3CCNCC3)c2)cnc1N)c1c(Cl)ccc(F)c1Cl` [crizotinib] as the molecule, how does the “time of treatment at which ROS1 phosphorylation was inhibited” value read?
Its value is 6 days.

— paper PMC3873281, “Discovery and Preclinical Characterization of Novel Small Molecule TRK and ROS1 Tyrosine Kinase Inhibitors for the Treatment of Cancer and Inflammation” (PLoS ONE, 2013)
